From ChEMBL document CHEMBL2029225, “Synthesis of marine-derived 3-alkylpyridinium alkaloids with potent antiprotozoal activity” (ACS Med Chem Lett, 2011)

System: HEK-293T
Assay: Cytotoxicity against human HEK293T cells after 72 hrs by alamar blue assay
Assay type: cell-based

O=[As]c1ccccc1 (stereo unspecified)
EC50: 6.4 µM
